In patent US9422289B2, “Use of pteridine derivatives for the treatment of increased intracranial pressure, secondary ischemia, and disorders associated with an increased level of cytotoxic reactive oxygen species” (VASOPHARM GMBH, priority 2003, dated 2016):

Biological target: T1, ETB (h) (Homo sapiens, UniProt P24530)
T1 sequence (P24530 27-442): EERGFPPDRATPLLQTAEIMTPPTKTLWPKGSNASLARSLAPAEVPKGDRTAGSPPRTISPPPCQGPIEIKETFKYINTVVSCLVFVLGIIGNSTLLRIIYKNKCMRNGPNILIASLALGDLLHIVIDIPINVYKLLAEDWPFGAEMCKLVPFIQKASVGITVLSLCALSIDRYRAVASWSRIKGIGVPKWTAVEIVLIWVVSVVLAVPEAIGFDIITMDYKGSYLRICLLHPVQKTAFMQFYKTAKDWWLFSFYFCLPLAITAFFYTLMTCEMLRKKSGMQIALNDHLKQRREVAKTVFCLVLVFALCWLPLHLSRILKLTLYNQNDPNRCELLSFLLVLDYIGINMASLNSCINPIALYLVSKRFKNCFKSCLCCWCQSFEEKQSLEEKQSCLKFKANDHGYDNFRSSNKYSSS
Experiment: Radioligand binding, Cerep 825-2h
Settings: reference compound

Substance: endothelin-3
- IC50: 0.12 nM
